The source of these data is ChEMBL document CHEMBL1134650.

The chains behind the UniProt entries cited, without tags or fusion partners. Where a name states a change or a piece, a line headed by the entry shows the natural chain unless it says otherwise.
UniProt P41144: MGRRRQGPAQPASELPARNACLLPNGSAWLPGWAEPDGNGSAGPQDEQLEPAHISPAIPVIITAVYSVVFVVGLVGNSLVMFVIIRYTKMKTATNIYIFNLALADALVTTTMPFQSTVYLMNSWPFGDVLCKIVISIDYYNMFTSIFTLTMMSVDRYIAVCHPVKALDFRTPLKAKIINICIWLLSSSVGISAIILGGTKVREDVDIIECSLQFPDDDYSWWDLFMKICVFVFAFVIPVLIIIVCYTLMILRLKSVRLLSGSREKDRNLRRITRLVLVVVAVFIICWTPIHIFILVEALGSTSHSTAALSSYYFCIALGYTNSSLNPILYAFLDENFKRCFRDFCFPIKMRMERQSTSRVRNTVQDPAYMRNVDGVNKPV

Structures are written as SMILES. Where “and” joins values, the source holds several entries; their conditions need not be identical. Equal values may be shown once. Calls of active or inactive are those of the source. The rule behind the calls is not given here. Bounds are passed on as bounds.

The target of the first assay is Kappa-type opioid receptor (Cavia porcellus) (UniProt P41144). The experiment in a line: Ability to stimulate binding to kappa-opioid receptor using GTP-gamma -S-binding assay in guinea pig caudate membranes, blocked with 6 nM nor-binaltorphimine (nor-BNI); NS=no stimulation.
Regarding `CN(C(=O)Cc1ccccc1)[C@H]1CC[C@@]2(CCCO2)C[C@@H]1N1CCCC1`, the NS entry is “inactive”.

Tested on in the next assay: not listed separately
As to the kind of experiment: Binding affinity ratio between kappa and delta receptor.
In the case of `CCN(CC)C(=O)c1ccc(N(c2ccccc2)[C@@H]2CCN(CC3CC3)C[C@H]2C)cc1`, the Ratio was greater than 31.

Turning to `C=CCN1CC[C@@H](N(c2ccc(C(=O)N(CC)CC)cc2)c2cccc(OC)c2)[C@@H](C)C1`, the Ratio was greater than 339.

Regarding `C=C(C)CN1CC[C@@H](N(c2ccccc2)c2ccc(C(=O)N(CC)CC)cc2)[C@@H](C)C1`, the Ratio was greater than 210.

As to `CCN(CC)C(=O)c1ccc(N(c2cccc(OC)c2)[C@@H]2CCN(C/C=C/c3ccccc3)C[C@@H]2C)cc1`, the Ratio is greater than 80.

Consider `C/C=C/CN1CC[C@@H](N(c2ccccc2)c2ccc(C(=O)N(CC)CC)cc2)[C@@H](C)C1`, for which the Ratio is 602 and 1100.

On to `CCN(CC)C(=O)c1ccc(N(c2cccc(OC)c2)[C@@H]2CCN(C)C[C@@H]2C)cc1`, for which the Ratio is greater than 43.

Turning to `C=CCN1C[C@H](C)[C@@H](N(c2ccccc2)c2ccc(C(=O)N(CC)CC)cc2)C[C@H]1C`, the Ratio was found to be 68.

`CCN(CC)C(=O)c1ccc(N(c2ccccc2)[C@@H]2CCN(CC3CC3)C[C@@H]2C)cc1`: the Ratio is 120.

As to `CCN(CC)C(=O)c1ccc(N(c2ccccc2)[C@@H]2CCN(C)C[C@H]2C)cc1`, the Ratio was 24.

As for `C=CCN1C[C@H](C)[C@H](N(c2ccccc2)c2ccc(C(=O)N(CC)CC)cc2)C[C@@H]1C`, the Ratio came to 55.

Take `C=CCN1CC[C@@H](N(c2ccc(C(=O)N(CC)CC)cc2)c2cccc(O)c2)[C@@H](C)C1`: the Ratio is 41.

`CCN(CC)C(=O)c1ccc(N(c2cccc(OC)c2)[C@@H]2CCN(CC3CC3)C[C@H]2C)cc1`: the Ratio was greater than 33.

Regarding `CCN(CC)C(=O)c1ccc(N(c2ccccc2)[C@@H]2CCN(C/C=C/c3ccccc3)C[C@@H]2C)cc1`, the Ratio worked out at 200.

For `CCN(CC)C(=O)c1ccc(N(c2ccccc2)[C@@H]2CCN(CC=C(C)C)C[C@@H]2C)cc1`, the Ratio is greater than 497.

In the case of `C=CCN1CC[C@@H](N(c2ccccc2)c2ccc(C(=O)N(CC)CC)cc2)[C@H](C)C1`, the Ratio turned out to be 69.

In the case of `CCN(CC)C(=O)c1ccc(N(c2cccc(OC)c2)[C@@H]2CCN(C)C[C@H]2C)cc1`, the Ratio was determined as 35.

In the case of `C=CCN1C[C@H](C)[C@H](N(c2ccccc2)c2ccc(C(=O)N(CC)CC)cc2)C[C@H]1C`, the Ratio is 62.

Consider `C=C(C)CN1CC[C@@H](N(c2ccc(C(=O)N(CC)CC)cc2)c2cccc(OC)c2)[C@@H](C)C1`, for which the Ratio was greater than 100.

Regarding `C/C=C/CN1CC[C@@H](N(c2ccc(C(=O)N(CC)CC)cc2)c2cccc(OC)c2)[C@@H](C)C1`, the Ratio is 414.

Turning to `CCN(CC)C(=O)c1ccc(N(c2ccccc2)[C@@H]2CCN(C)C[C@@H]2C)cc1`, the Ratio is greater than 132.

For the molecule `CCN(CC)C(=O)c1ccc(N(c2cccc(OC)c2)[C@@H]2CCN(CC3CC3)C[C@@H]2C)cc1`, the Ratio was greater than 210.

Turning to `CCN(CC)C(=O)c1ccc(N(c2cccc(OC)c2)[C@@H]2CCN(CC=C(C)C)C[C@@H]2C)cc1`, the Ratio is 170.

For `C=CCN1CC[C@@H](N(c2ccc(C(=O)N(CC)CC)cc2)c2cccc(OC)c2)[C@H](C)C1`, the Ratio amounted to 20.
